In patent publication US12686788B2, “Coating compositions having covalently bound ultraviolet absorbers” (BASF SE, priority 2017, dated 2026):

Columns and labels:
Assay type in all cases: physicochemical
[1] = Multilayered coated panels, accelerated weathering: 20 degree gloss retention; settings: after 3536 hours Xenon Arc accelerated weathering (SAE J2527); UV absorber 2.5 wt % in 2-part polyurethane clear top coat on white base coat
Description: (§1) Example 10. Stabilized 2-Part Solvent-borne Polyurethane Glossy Clear Top Coat. A glossy stabilized clear top coat was prepared of the formulation below. The UV absorbers were added to the formulation at 2.5 wt % relative to total resin solids.
Example 11. Stabilized 2-Part Solvent-borne Polyurethane Glossy Clear Top Coat. A glossy stabilized clear top coat was prepared of the formulation below. The UV absorber was added at 2.5 wt % relative to total resin solids, and the hindered amine light stabilizer (HALS) was added at 1.5 wt % relative to total resin solids. The HALS was a mixture of bis (1,2,2,6,6-pentamethyl-4-piperidyl) sebacate and methyl-1,2,2,6,6-pentamethyl-4-piperidyl sebacate (“HALS 1”); bis(1-octyloxy-2,2,6,6-tetramethylpiperidin-4-yl) sebacate (“HALS 2”); or 2,4-bis[(1-cyclohexyloxy-2,2,6,6-tetramethylpiperidin-4-yl)butylamino]-6-(2-hydroxyethylamino-s-triazine (“HALS 3”).
Example 12. Multilayered Coated Panel Preparation. Aluminum test panels from ACT Test Panels LLC were purchased having a white base coat (coil coat) and no clear top coat. The panels were cut to a size of about 3 inches by 6 inches. […] Initial CIE Lab color values, 20 degree gloss, and 60 degree gloss were measured. […]

[2] = UV absorber solubility in UV curable coating composition (Example 8); settings: approximate maximum concentration with no sign of crystallization; coating similar to Pourreau, RadTech Report 2004, Table 5
Description: Example 8. UV Absorber Solubility in UV Curable Coating Compositions. To measure this solubility, a number of structurally different UV absorbers were added to a typical UV curable coating composition similar to that as described by D. B. Pourreau “UV-Curable Acrylic Urethane Clearcoats for Automotive Applications,” RadTech Report, November/December, 2004, Table 5, p. 66. The test UV absorber was added to the UV curable coating composition at various concentrations. The resulting solution was placed into individual containers and sealed. Solubility was then evaluated based upon observed crystallization in the solvent. Observations started after several hours and then continued over a period of several weeks.
The solubility values given in Table 1, below, are approximate maximum concentrations where no sign of subsequent crystallization was evident. Solubilities are reported in weight percent of total UV absorber added to UV curable coating formulation. From the data in Table 1, it is clear that the inventive triazine UV absorbers are considerably more soluble in UV curable coating formulations than other triazine UV absorbers of the prior art. The use of many UV absorbers in coatings has been limited by solubility and compatibility of some UV absorber compounds. […]

[3] = Multilayered coated panels, accelerated weathering: color change (ΔE); settings: after 6000 hours Xenon Arc accelerated weathering (SAE J2527); UV absorber 2.5 wt % in 2-part polyurethane clear top coat on white base coat
Description: as §1
Example 11. Stabilized 2-Part Solvent-borne Polyurethane Glossy Clear Top Coat. A glossy stabilized clear top coat was prepared of the formulation below. The UV absorber was added at 2.5 wt % relative to total resin solids, and the hindered amine light stabilizer (HALS) was added at 1.5 wt % relative to total resin solids. […]
Example 12. […] Initial CIE Lab color values, 20 degree gloss, and 60 degree gloss were measured. […]
Initial color measurements were taken using the above parameters. The L, a, and b values were calculated using the CIE system from the reflectance values. ΔE was calculated from the L, a, and b values. Subsequent measurements were taken at specified intervals. ΔL, a, and b values were the difference between the initial values and the values at each interval. ΔE was calculated as follows: [(ΔL)^2+(Δa)^2+(Δb)^2][…]=ΔE. […]

| Substance | 20 degree gloss retention [1] [%] | Solubility in UV Curable Coating [2] [wt %] | Delta E [3] |
| --- | --- | --- | --- |
| 2-[4,6-bis(2,4-dimethylphenyl)-1,3,5-triazin-2-yl]-5-[2-hydroxy-3-(2-methylbutoxy)propoxy]phenol and regioisomer [Example 3, reference compound] | 69.9 | ~2 | 2.68 |
| 2-[4,6-bis(4-phenylphenyl)-1,3,5-triazin-2-yl]-5-(2-hydroxypropoxy)phenol (“UVA-1”) and 2-[4,6-bis(4-phenylphenyl)-1,3,5-triazin-2-yl]-5-(2-hydroxy-1-methyl-ethoxy)phenol (“UVA-2”) [Example 1] | 85.2 | – | 1.70 |
